{
  "source": "paper PMC6825215",
  "about": "“An anionic, endosome-escaping polymer to potentiate intracellular delivery of cationic peptides, biomacromolecules, and nanoparticles” (Nature Communications, 2019)",
  "system": "human coronary artery vascular smooth muscle cells (HCAVSMCs)",
  "test": "Flow cytometric uptake and retention of fluorescently labeled peptide",
  "settings": "5 µM Alexa-488 labeled peptide, mass ratios 3:1 to 1:20 peptide:polymer, 30 min, flow cytometry",
  "method": "All samples were run in triplicate.\nCells were then treated with each formulation for 30 min.\nCell culture medium containing the polymer treatment was then aspirated, and cells were subsequently treated with fluorescent peptide or vivo-morpholino alone for 30 min.\nHCAVSMCs were seeded and treated for 30 min as noted above.",
  "data": [
    {"smiles": "CC[C@H](C)[C@H](NC(=O)[C@H](CCCCN)NC(=O)CNC(=O)[C@H](CC(C)C)NC(=O)[C@H](CC(C)C)NC(=O)[C@H](Cc1ccc(O)cc1)NC(=O)CNC(=O)[C@H](C)NC(=O)[C@H](CO)NC(=O)[C@H](CC(N)=O)NC(=O)[C@H](CC(C)C)NC(=O)[C@@H](NC(=O)[C@H](Cc1c[nH]c2ccccc12)NC(=O)CN)[C@@H](C)O)C(=O)N[C@@H](CC(N)=O)C(=O)N[C@@H](CC(C)C)C(=O)N[C@@H](CCCCN)C(=O)N[C@@H](C)C(=O)N[C@@H](CC(C)C)C(=O)N[C@@H](C)C(=O)N[C@@H](C)C(=O)N[C@@H](CC(C)C)C(=O)N[C@@H](C)C(=O)N[C@@H](CCCCN)C(=O)N[C@@H](CCCCN)C(=O)N[C@H](C(=O)N[C@@H](CC(C)C)C(=O)N[C@@H](CCCCN)C(=O)N[C@@H](C)C(=O)N[C@@H](CC(C)C)C(=O)N[C@@H](C)C(=O)N[C@@H](CCCNC(=N)N)C(=O)N[C@@H](CCC(N)=O)C(=O)N[C@@H](CC(C)C)C(=O)NCC(=O)N[C@H](C(=O)N[C@@H](C)C(=O)N[C@@H](C)C(=O)O)C(C)C)[C@@H](C)CC", "note": "[Transportan-MK2i]", "values": [
      {"measurement": "effect of co-delivery with PPAA (pre-complexed NPs) on peptide uptake", "value": "did not display significant PPAA-mediated enhancement of uptake with co-delivery"}
    ]}
  ]
}
